Values quoted from earlier work as cited in paper PMC5454592, “Pharmacological and Toxicological Properties of the Potent Oral γ-Secretase Modulator BPN-15606” (The Journal of Pharmacology and Experimental Therapeutics, 2017).

System: Aβ42 in rat CSF
Conditions: dose of 30 mg/kg; ref Blain et al., 2016; cited from earlier work

## COc1nc(C2=NOC[C@H](c3cc4ccccc4o3)N2)ccc1-n1cnc(C)c1 (single isomer, unassigned)
  maximum reduction of Aβ42 in rat CSF: 58%
